## scFv variants of Ab-14 (light chain) against a SARS-CoV-2 spike peptide

Data: MIT Lincoln Laboratory AlphaSeq set, Engelhart et al. 2022, doi:10.1038/s41597-022-01779-4, as distributed in FLAb.

Antigen: PDVDLGDISGINAS, a 14-residue peptide of the SARS-CoV-2 spike HR2 region.

Parent: Ab-14, a human scFv built as VH, a (GGGGS)3 linker, VL. Only the CDRs of the light chain vary.
VH: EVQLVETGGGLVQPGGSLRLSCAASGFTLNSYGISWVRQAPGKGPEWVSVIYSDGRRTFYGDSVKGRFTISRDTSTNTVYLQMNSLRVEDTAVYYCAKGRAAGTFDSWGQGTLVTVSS
VL: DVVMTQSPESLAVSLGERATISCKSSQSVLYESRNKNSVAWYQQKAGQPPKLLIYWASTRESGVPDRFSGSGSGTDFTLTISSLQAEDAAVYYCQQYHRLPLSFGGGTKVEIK

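The parent was found by panning a naive human phage display library on the peptide. In library AAYL50, one, two or three CDR residues were substituted; doubles and triples were drawn at random. The assay is AlphaSeq: two haploid yeast populations carry antibody and antigen on their surface. Mating (16 h, 30 °C) was followed by selection of diploids and sequencing of their barcodes. Scores were corrected for input abundance and mapped to Kd with protein pairs of known affinity run in the same pool. Mating was done three times.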

The parent's light chain CDRs are KSSQSVLYESRNKNSVA, WASTRES, QQYHRLPLS; each variant's own CDRs replace them letter for letter. Numbers give log10(Kd / nM), so 0 is 1 nM and 3 is 1 µM. Smaller is tighter. Averages over replicates are reported, and they cover detected replicates only. "ND" means that the variant was in the library but no mating with the target was seen in that replicate; the authors take this as a sign of poor binding, and no number exists. Empty control strains, which show no peptide, gave a signal in 18% of pairings with library AAYL50; the median was 4.19 and 95% of these signals were weaker than 2.99. No background was subtracted. Also given: how often the same scFv was detected with the empty control strains, with their mean in brackets.

CDR-L1 | CDR-L2 | CDR-L3 | log10 Kd, replicates | mean log10 Kd (nM) | signal with controls
KNSQSVLYESRNKNSVA | WASTRES | CQYHRLDLS | 1.79 / 2.30 / 1.82 | 1.97 | 2/9 (4.88)
KSSFSVLYESRNKNSVS | WASTRES | GQYHRLPLS | 4.14 / ND / ND | 4.14 | 2/9 (3.97)
KSSQYVLYESRNKNSKA | WASTRES | QQYHRLPLS | ND / ND / ND | ND | 1/9 (2.20)
KSSQSVLYNSRNKSSVG | WASTRES | QQYHRLPLS | 4.45 / 3.89 / ND | 4.17 | 4/9 (4.76)
KSSQSVLYESRNKQSVA | WASTRES | QQYHRLPLS | 1.57 / 1.47 / 1.74 | 1.59 | 5/9 (4.12)
KSSQSVLYNSRNKNSVA | WASTRES | NQFHRLPLS | ND / ND / ND | ND | 0/9
KSSVSVLYESRRKNSVA | WACTRES | QQYHRLPLS | ND / ND / ND | ND | 1/9 (2.53)
KSSQSVLYEQRNKFSVA | WASTRES | QQYHRLPQS | ND / ND / ND | ND | 0/9
KSSQRELYESRNKNSVA | WASTRES | GQYHRLPLS | 2.11 / 2.06 / 2.24 | 2.14 | 2/9 (4.21)
KASQSVLYESRNKNSVA | WASTREY | QQYHRLPLI | 0.68 / 1.01 / 0.78 | 0.82 | 1/9 (4.12)
KSSQSVLYESRNKNSVA | WASTRES | QQYHRLPCS | 1.57 / 1.77 / 1.96 | 1.77 | 3/9 (4.42)
KSSQSVLYESRNKNSVA | WASTRET | MQVHRLPLS | 2.12 / 1.26 / 1.89 | 1.76 | 0/9
KSSQSVLYESRWKNSVA | WASTRES | QQYHRLPAG | ND / ND / ND | ND | 3/9 (4.36)
KSDQSVLYESRNKNSVA | WASTRES | QQYHRLPLS | 2.11 / 2.16 / 2.36 | 2.21 | 3/9 (5.41)
KSSQSVLIESRNKNSVA | WAYTRLS | QQYHRLPLS | 3.56 / 2.69 / 4.17 | 3.47 | 0/9
KSSQSVLYESRNKQSVE | WASTRES | QQYHRNPLS | ND / 5.13 / ND | 5.13 | 1/9 (4.15)
KSSQSVLYSSRNKNSVK | WASTRES | QQYHRLRLS | ND / 3.07 / 3.96 | 3.51 | 0/9
KSSQGVLYESRNKNSVA | WASTRES | QQYHRLLCS | ND / ND / ND | ND | 0/9
KSTGSVLYESRNKNSWA | WASTRES | QQYHRLPLS | ND / ND / ND | ND | 0/9
KSSQSVLFESRNKNSVA | WASTRES | QQYNRLPLS | 0.27 / 0.74 / 0.39 | 0.47 | 2/9 (2.85)
KSYQSVLYESRVKNSVA | DASTRES | QQYHRLPLS | -0.42 / -0.10 / -0.36 | -0.30 | 1/9 (2.74)
KSWQSVLYESRNKNSVA | WASTRES | QQYHRLMES | 3.99 / ND / ND | 3.99 | 0/9
KSTQSVPYESRNKNDVA | WASTRES | QQYHRLPLS | 2.19 / 2.24 / 2.33 | 2.25 | 3/9 (3.96)
KSSQAVLYPSRNKNSVA | WAFTRES | QQYHRLPLS | 3.59 / 3.24 / 2.87 | 3.23 | 4/9 (3.98)
KSSQFVLYESRNKNSVA | WASTRKS | AQYHRLPLS | 4.07 / ND / ND | 4.07 | 0/9
KSSQSVLYESRNWNSVA | WSSTRES | RQYHRLPLS | 3.14 / ND / ND | 3.14 | 3/9 (4.81)
KSSQSVLYESRNKNSVA | WASVREE | QQYHRLPSS | 5.01 / ND / ND | 5.01 | 0/9
KASQHVLYDSRNKNSVA | WASTRES | QQYHRLPLS | 1.33 / 1.16 / 1.37 | 1.29 | 3/9 (4.71)
KSSQSVLNESRNKHSVA | WASTRES | QQYHRMPLS | 1.50 / 1.50 / 1.26 | 1.42 | 1/9 (4.92)
KMSQSVLYESRNKQSVA | WASTRES | QQYHRLPYS | ND / ND / ND | ND | 1/9 (3.01)
KSSQSVLYQSRNKNSVP | WMSTRES | QQYHRLPLS | ND / 5.26 / 4.38 | 4.82 | 3/9 (4.40)
KSSQSVLYRSRNKNEVA | WASTRES | QQYHRLPLS | 5.93 / ND / ND | 5.93 | 1/9 (3.46)
KSSQSVLYESRNKNSVA | WAETRSS | QFYHRLPLS | 1.12 / 1.35 / 1.33 | 1.27 | 1/9 (5.49)
KSSQSVLYEIRNKNSVA | WASTREQ | QQYHRLPLS | 1.98 / 1.77 / 2.15 | 1.97 | 2/9 (4.87)
KSSQSVLYESRNKNRVA | WASTRES | QQYHRLWLS | ND / ND / ND | ND | 2/9 (4.14)
KSSQSVLYEWRNKNCVA | WASTRES | QQCHRLPLS | 4.50 / ND / 3.96 | 4.23 | 1/9 (3.66)

Excerpt, the final 3 entries:

{"CDR-L1": "KSSQSVLYEIRNKNSVA", "CDR-L2": "WASTREQ", "CDR-L3": "QQYHRLPLS", "log10 Kd, replicates": "1.98 / 1.77 / 2.15", "mean log10 Kd (nM)": "1.97", "signal with controls": "2/9 (4.87)"}
{"CDR-L1": "KSSQSVLYESRNKNRVA", "CDR-L2": "WASTRES", "CDR-L3": "QQYHRLWLS", "log10 Kd, replicates": "ND / ND / ND", "mean log10 Kd (nM)": "ND", "signal with controls": "2/9 (4.14)"}
{"CDR-L1": "KSSQSVLYEWRNKNCVA", "CDR-L2": "WASTRES", "CDR-L3": "QQCHRLPLS", "log10 Kd, replicates": "4.50 / ND / 3.96", "mean log10 Kd (nM)": "4.23", "signal with controls": "1/9 (3.66)"}